The record followed here is PMC11272584 (Nature Metabolism, 2024).

In test [1] the target is T1, GIPR P195R (Homo sapiens, UniProt P48546, P195R).
T1 sequence (P48546 22-466 P195R): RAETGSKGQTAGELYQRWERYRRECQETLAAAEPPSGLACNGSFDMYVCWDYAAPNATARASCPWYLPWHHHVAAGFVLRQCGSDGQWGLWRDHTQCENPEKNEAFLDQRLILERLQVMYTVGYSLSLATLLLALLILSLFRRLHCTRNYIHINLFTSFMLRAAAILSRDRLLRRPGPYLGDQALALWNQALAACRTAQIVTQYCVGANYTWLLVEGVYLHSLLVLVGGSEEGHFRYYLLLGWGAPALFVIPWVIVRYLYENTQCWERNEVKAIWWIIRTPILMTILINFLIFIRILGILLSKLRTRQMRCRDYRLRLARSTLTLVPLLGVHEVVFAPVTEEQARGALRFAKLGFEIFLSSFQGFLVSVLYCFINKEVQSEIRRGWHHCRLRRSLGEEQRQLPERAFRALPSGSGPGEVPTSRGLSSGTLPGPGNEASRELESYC
Briefly: cAMP accumulation. The format is cell-based. Also on record: host or cells: HEK293. A general note: cAMP levels reflect the balance of adenylyl cyclase and phosphodiesterase activity.

Test [2] concerns the target T2, GIPR R183Q (Homo sapiens, UniProt P48546, R183Q).
T2 sequence (P48546 22-466 R183Q): T1 sequence (P48546 22-466 P195R) with R162Q, R174P
As to conditions: GIPR R183Q (2.60); normalized to WT GIPR; mean, n = 5, duplicate.

The target in test [3] is T3, GIPR L13F (Homo sapiens, UniProt P48546).
T3 sequence (P48546 22-466): T1 sequence (P48546 22-466 P195R) with R174P
The test is described as follows: cAMP accumulation. It is filed as cell-based. Details: host or cells: HEK293.

Test [4] has as its target T4, GIPR G449A (Homo sapiens, UniProt P48546, G449A).
T4 sequence (P48546 22-466 G449A): T1 sequence (P48546 22-466 P195R) with R174P, G428A
The test is described as follows: cAMP accumulation. It is filed as cell-based. Also on record: host or cells: HEK293.

The target in test [5] is T5, GIPR A150T (Homo sapiens, UniProt P48546, A150T).
T5 sequence (P48546 22-466 A150T): T1 sequence (P48546 22-466 P195R) with A129T, R174P
To be noted: GIPR A150T (1.52), mean, n = 5, duplicate.

Setting [6] is: HEK293, GIP(1–42) 1 pM–100 nM, 30 min 37 °C, mean of n = 6.
The mark [7] stands for this setting: HEK293, Hill slope 1.0, mean of n = 6.

Changes are numbered by the printed parent chain.

In the case of “glucose-dependent insulinotropic polypeptide [GIP]”, the “cAMP (Emax)” value in test [1] (setting [6]) was 16 % of WT GIPR activity; in test [3] (HEK293, GIP(1–42) 1 pM–100 nM, 30 min 37 °C, mean of n = 4), 87 % of WT GIPR activity; in test [4] (setting [6]), 65 % of WT GIPR activity. Moreover, the “logEC50 (cAMP)” value in test [1] (setting [7]) was -10.4; in test [3] (HEK293, Hill slope 1.0, mean of n = 4), -11.3; in test [4] (setting [7]), -11.1. Further, the “Arrestin (Emax)” value in test [2] is on record as 4; in test [5] (normalized to WT GIPR), 82. Besides, the “logEC50 (Arrestin)” value in test [5] (Hill slope 1.0) was -8.9.
